Laboratory results reported in patent publication US20100260668A1 (published 2010).

T1: VEGF (UniProt P15692-4 27-191)
T1 construct: Bought reagent
T1 sequence (looked up): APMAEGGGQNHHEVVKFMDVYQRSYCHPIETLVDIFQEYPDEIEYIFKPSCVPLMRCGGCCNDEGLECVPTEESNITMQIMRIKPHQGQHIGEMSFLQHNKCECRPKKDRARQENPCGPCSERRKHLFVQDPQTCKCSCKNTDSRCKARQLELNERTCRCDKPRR

T2: VEGF (UniProt P15692-4 27-191)
T2 sequence (looked up): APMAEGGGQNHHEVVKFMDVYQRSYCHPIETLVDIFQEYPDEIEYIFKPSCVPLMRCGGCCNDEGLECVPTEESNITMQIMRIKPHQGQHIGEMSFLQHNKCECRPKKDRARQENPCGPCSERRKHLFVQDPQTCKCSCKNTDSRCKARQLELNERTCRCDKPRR


Legend:
[1] = target: T1, VEGF; experiment: Biacore SPR
[2] = target: T2, VEGF; experiment: SPR (Biacore); N-terminal VD

koff [1] [s⁻¹] | kon [1] [M⁻¹ s⁻¹] | koff [2] [s⁻¹] | kon [2] [M⁻¹ s⁻¹] | Binder
1.46e-05 | 34500 |  |  | DVD042 (bispecific antibody, human IgG1, kappa, N-terminal VD IGF1,2, C-terminal VD VEGF; also called DVD042H; DVD042L) heavy: QVQLVQSGAEVKKPGASVKVSCKASGYTFTSYDINWVRQATGQGLEWMGWMNPNSGNTGYAQKFQGRVTMTRNTSISTAYMELSSLRSEDTAVYYCARDPYYYYYGMDVWGQGTTVTVSSASTKGPEVQLVESGGGLVQPGGSLRLSCAASGYTFTNYGMNWVRQAPGKGLEWVGWINTYTGEPTYAADFKRRFTFSLDTSKSTAYLQMNSLRAEDTAVYYCAKYPHYYGSSHWYFDVWGQGTLVTVSSASTKGPSVFPLAPSSKSTSGGTAALGCLVKDYFPEPVTVSWNSGALTSGVHTFPAVLQSSGLYSLSSVVTVPSSSLGTQTYICNVNHKPSNTKVDKKV[omitted - human IgG1 Fc] light: QSVLTQPPSVSAAPGQKVTISCSGSSSNIENNHVSWYQQLPGTAPKLLIYDNNKRPSGIPDRFSGSKSGTSATLGITGLQTGDEADYYCETWDTSLSAGRVFGGGTKLTVLGQPKAAPDIQMTQSPSSLSASVGDRVTITCSASQDISNYLNWYQQKPGKAPKVLIYFTSSLHSGVPSRFSGSGSGTDFTLTISSLQPEDFATYYCQQYSTVPWTFGQGTKVEIKRTVAAPSVFIFPPSDEQLKSGTASVVCLLNNFYPREAKVQWKVDNALQSGNSQESVTEQDSKDSTYSLSSTLTLSKADYEKHKVYACEVTHQGLSSPVTKSFNRGEC
 |  | 2.06e-05 | 502000 | DVD259 (bispecific antibody, human IgG1, kappa, N-terminal VD VEGF, C-terminal VD PlGF; also called VD259H; VD259L) heavy: EVQLVESGGGLVQPGGSLRLSCAASGYTFTNYGMNWVRQAPGKGLEWVGWINTYTGEPTYAADFKRRFTFSLDTSKSTAYLQMNSLRAEDTAVYYCAKYPHYYGSSHWYFDVWGQGTLVTVSSASTKGPQVQLQQSGAELVKPGASVKISCKASGYTFTDYYINWVKLAPGQGLEWIGWIYPGSGNTKYNEKFKGKATLTIDTSSSTAYMQLSSLTSEDTAVYFCVRDSPFFDYWGQGTLLTVSSASTKGPSVFPLAPSSKSTSGGTAALGCLVKDYFPEPVTVSWNSGALTSGVHTFPAVLQSSGLYSLSSVVTVPSSSLGTQTYICNVNHKPSNTKVDKKV[omitted - human IgG1 Fc] light: DIQMTQSPSSLSASVGDRVTITCSASQDISNYLNWYQQKPGKAPKVLIYFTSSLHSGVPSRFSGSGSGTDFTLTISSLQPEDFATYYCQQYSTVPWTFGQGTKVEIKRTVAAPDIVLTQSPDSLAVSLGERVTMNCKSSQSLLNSGMRKSFLAWYQQKPGQSPKLLIYWASTRESGVPDRFTGSGSGTDFTLTISSVQAEDVAVYYCKQSYHLFTFGSGTKLEIKRTVAAPSVFIFPPSDEQLKSGTASVVCLLNNFYPREAKVQWKVDNALQSGNSQESVTEQDSKDSTYSLSSTLTLSKADYEKHKVYACEVTHQGLSSPVTKSFNRGEC
